Test results: patent US20240425478A1, “CYCLOPENTYLPYRAZOLE CDK2 INHIBITORS” (Genentech, Inc., priority 2021, published 2024)

Sequences of proteins named here, by UniProt entry; tags and fusion partners are left off. A change or cut given only in a name is not applied to a line headed by its entry.
UniProt P11802: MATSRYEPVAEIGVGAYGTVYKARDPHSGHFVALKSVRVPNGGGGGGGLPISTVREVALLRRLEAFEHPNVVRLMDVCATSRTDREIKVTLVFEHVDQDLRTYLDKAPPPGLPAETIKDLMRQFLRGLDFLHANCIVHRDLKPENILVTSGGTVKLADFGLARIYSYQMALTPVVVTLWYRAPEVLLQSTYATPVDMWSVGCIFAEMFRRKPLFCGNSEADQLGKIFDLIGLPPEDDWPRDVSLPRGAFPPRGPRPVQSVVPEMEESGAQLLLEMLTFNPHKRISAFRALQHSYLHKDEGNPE

Molecular target: T1, Cyclin Dependent Kinase 4/Cyclin D3 (CDK4-cycD3) (Homo sapiens, UniProt P11802)
T1 construct: purchased Carna Biosciences 04-105
Test: CDK4-cycD3 TR-FRET (LANCE) enzyme assay
Assay type: biochemical
Procedure: Cyclin Dependent Kinase 1/Cyclin A2 (CDK1-cycA2), Cyclin Dependent Kinase 2/Cyclin E1 (CDK2-cycE1), Cyclin Dependent Kinase 4/Cyclin D3 (CDK4-cycD3) and Cyclin Dependent Kinase 6/Cyclin D3 (CDK6-cycD3) enzyme assays were carried out as described below.
(iii) CDK4-cycD3 TR-FRET (LANCE®)
An Echo acoustic dispenser is used to create dose responses of compound dissolved in DMSO into a 384-well microplate. A 5 μL volume of enzyme mix is added to the well, and pre-incubated with compound for 30 minutes. […] Buffer conditions are 50 mM HEPES, pH 7.5, 10 mM MgCl2, 2 mM TCEP, 0.05% BGG and 0.01% Brij 35. The reaction is quenched with 5 μL of EDTA in detection buffer (15 mM [EDTA final]). Finally, a 5 μL TR-FRET detection mix is added to the quenched reaction, which includes Europium labeled anti-phospho-4E-BP1. […] Signal is a ratio of the Acceptor and Donor fluorescence. Inhibition constants are calculated via the Morrison equation.

Question: Which Ki does the source give for `CC(C)NC(=O)O[C@@H]1CC[C@H](c2cc(Nc3ccn(C)n3)n[nH]2)C1` [Comparator C, reference compound] here?
Answer: 0.29 µM
